We go through seven molecules from article PMC5972182, “Comparison of a Rat Primary Cell-Based Blood-Brain Barrier Model With Epithelial and Brain Endothelial Cell Lines: Gene Expression and Drug Transport” (Frontiers in Molecular Neuroscience, 2018).

Data set [1] is described as follows: Permeability across Caco-2 epithelial cell layers. Type of data set: in vitro ADME. Particulars: human, 10 μM (glucopyranose 100 μM, valproic acid 300 μM), 60–120 min; for Papp A→B: apical to basal, unit inferred.
The nature of data set [2]: Permeability across MDCK cell layers. Conditions: dog, 10 μM (glucopyranose 100 μM, valproic acid 300 μM), 60–120 min; for Papp A→B: apical to basal, unit inferred. The class given is in vitro ADME, canine.
Data set [3] in a line: Permeability across MDCK-MDR1 cell layers. Type of data set: in vitro ADME, canine. Conditions: dog, apical to basal, 10 μM (glucopyranose 100 μM, valproic acid 300 μM), 60–120 min, unit inferred.
The next data set relates to MDR1. The experiment in a line: Permeability across MDCK-MDR1 cell layers. The class given is in vitro ADME, canine. Conditions: dog, 10 μM (glucopyranose 100 μM, valproic acid 300 μM), 60–120 min.

Take `NCC(CC(=O)O)c1ccc(Cl)cc1` (stereo not drawn) [Baclofen, baclofen]: the efflux ratio (usually the permeability from basolateral to apical divided by that in the opposite direction, in the common usage) came out at 0.77 in data set [1], 0.77 in data set [2] and 0.82 in the data set on MDR1. The Papp A→B – broadly, how fast a substance crosses the layer from the apical side – in data set [1] amounted to 1.23 ×10⁻⁶ cm/s; in data set [2] it was 1.28 ×10⁻⁶ cm/s; in data set [3], 0.68 ×10⁻⁶ cm/s.

Turning to `NCC1(CC(=O)O)CCCCC1` [Gabapentin, gabapentin], the efflux ratio was found to be 0.77 in data set [1], 0.28 in data set [2] and 0.42 in the data set on MDR1. Moreover, the Papp A→B turned out to be 1.8 ×10⁻⁶ cm/s in data set [1], 3.35 ×10⁻⁶ cm/s in data set [2] and 4.75 ×10⁻⁶ cm/s in data set [3].

In the case of `CO[C@H]1[C@H](O)[C@@H](CO)OC(O)[C@@H]1O` (stereo partly drawn) [Glucopyranose, 3-O-methyl-D-glucopyranose], the efflux ratio in data set [1] worked out at 0.64. Besides, the Papp A→B is 57.8 ×10⁻⁶ cm/s in data set [1], under 18.5 ×10⁻⁶ cm/s in data set [2] and under 18.5 ×10⁻⁶ cm/s in data set [3].

Turning to `CC[C@H](C)C(=O)O[C@H]1C[C@H](O)C=C2C=C[C@H](C)[C@H](CC[C@@H](O)C[C@@H](O)CC(=O)O)[C@H]21` [Pravastatin, pravastatin], the efflux ratio stood at 0.9 in data set [1], 2.4 in data set [2] and 1.09 in the data set with MDR1. In addition, the Papp A→B worked out at 1.5 ×10⁻⁶ cm/s in data set [1], 0.58 ×10⁻⁶ cm/s in data set [2] and 0.3 ×10⁻⁶ cm/s in data set [3].

For the molecule `CCCN(CCC)S(=O)(=O)c1ccc(C(=O)O)cc1` [Probenecid, probenecid], the values for the efflux ratio (in data set [1]; in data set [2]; with MDR1) were 0.88, 0.83 and 0.98, respectively. Also, the apical-to-basolateral permeability (Papp A→B) in data set [1] is 27.3 ×10⁻⁶ cm/s; in data set [2], 19.4 ×10⁻⁶ cm/s; in data set [3] it was 17.2 ×10⁻⁶ cm/s.

Turning to `O=C(O)c1ccccc1O` [Salicylic acid, salicylic acid], the Papp A→B in data set [1] amounted to 16.6 ×10⁻⁶ cm/s; in data set [2] it was 13 ×10⁻⁶ cm/s.

As to `CCCC(CCC)C(=O)O` [Valproic acid, valproic acid], the efflux ratio came to 0.82 in data set [1], 1.22 in data set [2] and 1.26 in the data set on MDR1. Also, the Papp A→B in data set [1] was 51.9 ×10⁻⁶ cm/s; in data set [2] it was 26.6 ×10⁻⁶ cm/s; in data set [3] it was 27.5 ×10⁻⁶ cm/s.
